We go through two substances from patent US20260232768A1, “TREATMENT OF ATOPIC DERMATITIS WITH POLYETHYLENE GLYCOL-MODIFIED INTERLEUKIN 2, GLUCOCORTICOID AND HYALURONIC ACID” (priority 2023, published 2026).

Common to all, as to assay type: in vivo, BALB/c mice
Experiment [1] relates to CD25+FoxP3+ cells in spleen CD3+CD4+ lymphocytes and PD-1+ cells in CD3+CD4+CD25+FoxP3+ cells. Description: Intraperitoneal injection in physiological model mice, spleen Treg and PD-1 by flow cytometry. The following applies: detected on day 4. The protocol: During the whole experiment, the mice were randomly divided into 28 groups, 6 mice in each group. The administration mode of each treatment group in AD model mice was the aforementioned patch method, the patch was prepared by wetting a 1.5×1.5 cm^2 sterile gauze in the drug solution (approximately containing 100 μL drug solution and/or 50 μL hyaluronic acid), the drugs were dissolved in PBS solution, at a concentration of 100,000 IU/ml of normal IL-2 or PEG-IL-2, 20 μg/ml of budesonide, 100 μg/mL of dexamethasone, and 50 mg/mL of hyaluronic acid (HA). Administration was continued for three consecutive days starting at day 4-5 of induced mouse dermatitis, and was changed every day, except that the administration protocol was different among groups, and the rest conditions remained consistent. After 3 days, the mice were euthanized, and the skin tissue, spleen, and blood of the administered site were taken for further detection. […]
In general terms: Flow cytometry measures light scatter and fluorescence of single cells or particles in a stream.

Experiment [2] concerns OVA induced atopic dermatitis (AD) mouse model. The experiment can be described thus: OVA induced atopic dermatitis (AD) mouse model, skin inflammation status scoring. The following applies: AD model mice, topical patch for 3 consecutive days; total score 0-12; 6 mice per group. An excerpt:
(§1) The mouse atopic dermatitis model was generated by the method with minor modifications according to the literature [JIN H, et al. Animal models of atopic dermatitis. J Invest Dermatol, 2009, 129 (1): 31-40; KIM W H, et al. Beneficial effects of melittin on ovalbumin-induced atopic dermatitis in mouse. Sci Rep, 2017, 7 (1): 17679; WANG G, et al. Repeated epicutaneous exposures to ovalbumin progressively induce atopic dermatitis-like skin lesions in mice. Clin Exp Allergy, 2007, 37 (1): 151-61]. Chicken ovalbumin (OVA) sensitized BALB/c mice were common mouse models of type I allergic diseases. 10 μg OVA was mixed with 2 mg of aluminum hydroxide in 200 μL of phosphate buffer (PBS) solution, intraperitoneally injected to sensitize mice, once every week (at day 0, 7 and 14), each mouse was injected 3 times, 200 μL each time. […] The OVA patch was prepared by wetting a 1.5×1.5 cm^2 sterile gauze in a solution of 1 mg/mL of OVA (dissolved in PBS) (approximately 100 μL of OVA solution), and was attached using a transparent dressing to the back skin after epilation and replaced daily for 3-7 days to develop dermatitis manifestation, and the status of the back skin of the mice was recorded photographically on day 4~5 after inducing mouse dermatitis (the dermatitis manifestation was most obvious), and the skin inflammation status was scored. […]

The test system of experiment [3] is CD25+FOXP3+ Treg cells in skin CD4+ cells. Description: Ratio of Treg cells in skin of AD model mice via flow cytometry. Particulars: after 3 days of topical administration.
From the text: as §1

Experiment [4] deals with skin thickness and inflammatory cell infiltration. Description: Skin tissue pathological H&E staining in AD model mice. The following applies: after 3 days of topical administration. The text has this:
The mouse atopic dermatitis model was generated by the method with minor modifications according to the literature [JIN H, et al. Animal models of atopic dermatitis. J Invest Dermatol, 2009, 129 (1): 31-40; KIM W H, et al. Beneficial effects of melittin on ovalbumin-induced atopic dermatitis in mouse. Sci Rep, 2017, 7 (1): 17679; WANG G, et al. Repeated epicutaneous exposures to ovalbumin progressively induce atopic dermatitis-like skin lesions in mice. Clin Exp Allergy, 2007, 37 (1): 151-61]. Chicken ovalbumin (OVA) sensitized BALB/c mice were common mouse models of type I allergic diseases. 10 μg OVA was mixed with 2 mg of aluminum hydroxide in 200 μL of phosphate buffer (PBS) solution, intraperitoneally injected to sensitize mice, once every week (at day 0, 7 and 14), each mouse was injected 3 times, 200 μL each time. On day 14, mice were anesthetized using pentobarbital intraperitoneal injection. During anesthesia, the back skin hair was removed with electric clipper and depilatory paste, and after clearing, the medical adhesive tape was directly pasted on the back skin for several seconds and then torn off, repeated about 4 times to destroy the stratum corneum on the surface of skin, and then the OVA patch was pasted on the mouse skin to induce atopic (allergic) dermatitis in mice. […]

Consider “20 kD PEG-IL-2: recombinant human IL-2 modified with 20 kDa non-branched PEG (M-ALD-20 kD)”, for which the “up-regulation of FoxP3+ regulatory T cells in spleen (in words)” value in experiment [1] is “did not up-regulate Tregs”.
Regarding “40 kD PEG-IL-2: recombinant human IL-2 modified with 40 kDa non-branched PEG (M-ALD-40 kD)”, the “Dermatitis score (χ ± s)” value in experiment [2] is reported as 2.667 ± 0.516 ^. In addition, the “effect on proportion of Treg cells in skin (in words)” value in experiment [3] is “no significant change”. The “skin thickness and inflammatory cell infiltration in pathological section (in words)” value in experiment [4] is reported as “no significant improvement”. Besides, in experiment [1], the “up-regulation of FoxP3+ regulatory T cells in spleen (in words)” value is given as “did not up-regulate Tregs”.
